Experimental data as given in patent publication US9107926B2, “Mutant selectivity and combinations of a phosphoinositide 3-kinase inhibitor compound and chemotherapeutic agents for the treatment of cancer” (Genentech, Inc., priority 2012, dated 2015).

The chains behind the UniProt entries cited, without tags or fusion partners.
UniProt P42336, whole entry: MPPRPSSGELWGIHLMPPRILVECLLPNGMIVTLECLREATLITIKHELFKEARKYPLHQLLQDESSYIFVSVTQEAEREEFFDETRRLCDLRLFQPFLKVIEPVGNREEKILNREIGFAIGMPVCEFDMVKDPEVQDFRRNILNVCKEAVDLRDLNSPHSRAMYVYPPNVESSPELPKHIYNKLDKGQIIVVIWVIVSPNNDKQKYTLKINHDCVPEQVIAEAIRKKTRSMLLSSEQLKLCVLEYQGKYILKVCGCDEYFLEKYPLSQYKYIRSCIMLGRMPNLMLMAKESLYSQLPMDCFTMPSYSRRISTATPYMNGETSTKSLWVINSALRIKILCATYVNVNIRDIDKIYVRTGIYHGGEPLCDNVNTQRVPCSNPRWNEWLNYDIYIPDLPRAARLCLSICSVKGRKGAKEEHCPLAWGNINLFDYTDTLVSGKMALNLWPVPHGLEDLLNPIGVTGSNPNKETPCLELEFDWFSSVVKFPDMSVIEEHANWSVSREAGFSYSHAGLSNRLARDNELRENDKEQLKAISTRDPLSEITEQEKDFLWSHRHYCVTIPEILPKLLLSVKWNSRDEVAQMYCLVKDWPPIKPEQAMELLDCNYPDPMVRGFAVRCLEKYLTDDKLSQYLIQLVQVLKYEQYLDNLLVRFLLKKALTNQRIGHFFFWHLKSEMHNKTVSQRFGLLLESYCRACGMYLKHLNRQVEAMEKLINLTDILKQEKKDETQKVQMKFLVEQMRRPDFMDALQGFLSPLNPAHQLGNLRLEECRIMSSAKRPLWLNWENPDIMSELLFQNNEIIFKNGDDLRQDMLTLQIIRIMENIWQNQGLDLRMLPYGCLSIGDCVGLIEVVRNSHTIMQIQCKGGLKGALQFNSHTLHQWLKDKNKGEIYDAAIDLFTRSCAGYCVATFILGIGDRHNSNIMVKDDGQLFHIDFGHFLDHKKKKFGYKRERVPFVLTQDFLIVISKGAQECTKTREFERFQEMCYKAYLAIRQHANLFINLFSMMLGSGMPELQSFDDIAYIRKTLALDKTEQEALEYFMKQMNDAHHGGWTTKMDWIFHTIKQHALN

Experiments:
PI3K alpha = PI3K alpha (Homo sapiens, UniProt P42336); assay: p110α (alpha) PI3K binding assay
KPL4 = assay: CellTiter-Glo cell proliferation assay; format: cell-based; conditions: KPL4 with H1047R and D350N PIK3CA mutations

Row | Compound | Ki (PI3K alpha) | effect on cell viability (KPL4)
1 | Cc1nc(-c2cn3c(n2)-c2ccc(-c4cnn(C(C)(C)C(N)=O)c4)cc2OCC3)n(C(C)C)n1 [GDC-0032, 2-(4-(2-(1-isopropyl-3-methyl-1H-1,2,4-triazol-5-yl)-5,6-dihydrobenzo[f]imidazo[1,2-d][1,4]oxazepin-9-yl)-1H-pyrazol-1-yl)-2-methylpropanamide] | 0.22 nM | –
2 | Trastuzumab: recombinant DNA-derived humanized, IgG1 kappa, monoclonal antibody binding the extracellular domain of HER2 | – | did not have an effect on cell viability
